Measured affinities in a library of Ab-14 heavy chain variants

Data: MIT Lincoln Laboratory AlphaSeq set, Engelhart et al. 2022, doi:10.1038/s41597-022-01779-4, as distributed in FLAb.

Binding partner: SARS-CoV-2 spike HR2 peptide, sequence PDVDLGDISGINAS.

The variants keep the light chain, the linker and the frameworks of Ab-14 (scFv order VH, the linker GGGGSGGGGSGGGGS, VL).
VH: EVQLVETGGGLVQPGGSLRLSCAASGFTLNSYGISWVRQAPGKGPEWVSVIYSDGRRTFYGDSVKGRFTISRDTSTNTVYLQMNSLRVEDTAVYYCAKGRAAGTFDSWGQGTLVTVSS
VL: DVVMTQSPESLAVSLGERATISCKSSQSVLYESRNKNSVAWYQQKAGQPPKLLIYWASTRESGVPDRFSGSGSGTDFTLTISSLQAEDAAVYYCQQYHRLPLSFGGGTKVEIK

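Variants in AAYL49 differ from the parent at up to three CDR positions; double and triple changes were sampled at random. In AlphaSeq, yeast of one mating type display the scFv and yeast of the other type display the target. The frequency of each diploid, read from paired DNA barcodes, reflects how well the two displayed proteins bind. A regression on co-assayed BCL2-family reference pairs converts the normalised counts of each replicate to an apparent Kd. The assay was run in three technical replicates.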

Changes read parent residue, position, new residue, counted from the first residue of the VH shown.
All variants listed here change R56 of the VH, counted from its first residue.
Numbers give log10(Kd / nM), so 0 is 1 nM and 3 is 1 µM. Smaller is tighter.
Replicates are averaged; those with no signal do not enter the mean.
"no signal" marks a missing value. The strain was present, yet no cells mated with the target were sequenced in any replicate, which points to weak or no binding.
Parent in this assay: reference entry 0.65, copy in this library 4.11 (one replicate of three).

changes,mean log10 Kd (nM),seen in
G55Q R56C F105L,no signal,0 of 3
R56N T58N S63E,no signal,0 of 3
I34C R56Y D106C,no signal,0 of 3
R56E S63C A102N,2.56,3 of 3
S31L R56D T104W,no signal,0 of 3
R56Q G61Y R100F,no signal,0 of 3
S53L R56E T104G,4.88,1 of 3
R56M,0.89,3 of 3
S53C R56M S107I,no signal,0 of 3
I51A G55V R56K,no signal,0 of 3
G33A Y52H R56G,4.47,1 of 3
R56P,no signal,0 of 3
R56D V64R G99V,no signal,0 of 3
I51A R56C,4.40,2 of 3
R56L D62W A101Q,1.79,3 of 3
R56H S63E A102E,2.64,1 of 3
F27L R56A G99M,no signal,0 of 3
L29E R56I R57Q,3.68,1 of 3
F27P R56D S107H,3.61,3 of 3
R56T D62G,2.15,3 of 3
I51D R56I S63F,3.79,1 of 3
T28M R56C A102Q,2.70,3 of 3
N30D R56S F105I,1.41,3 of 3
R56E V64G D106H,1.15,3 of 3
R56Y R57N T58D,no signal,0 of 3
S31P S35H R56G,no signal,0 of 3
R56M T58I S107M,2.97,3 of 3
S53G R56A G103W,3.99,3 of 3
G55F R56L F59A,5.16,3 of 3
R56I F105G D106G,0.93,3 of 3
R56L Y60C K65Y,4.48,1 of 3
S35L R56E,no signal,0 of 3
R56Q T58Q F105K,no signal,0 of 3
R56P Y60K A102E,no signal,0 of 3
R56F K65V,no signal,0 of 3
R56E F59Y S107P,no signal,0 of 3
R56D D62A G103T,no signal,0 of 3
R56H G61D F105H,no signal,0 of 3
G33I R56E K65P,no signal,0 of 3
N30L I51D R56F,3.17,1 of 3
R56I G61P S107L,1.60,3 of 3
R56S F105R,no signal,0 of 3
T28C Y32V R56N,no signal,0 of 3
N30W R56E S107Q,1.53,3 of 3
D54L R56N D62G,no signal,0 of 3
L29W R56P T58L,4.33,1 of 3
V50D R56F D106I,4.12,2 of 3
Y32H R56V R57Q,no signal,0 of 3
R56P D62A G99P,4.07,1 of 3
T28F S53C R56A,no signal,0 of 3
G33M R56Y G61P,no signal,0 of 3
T28D R56G A101Q,0.80,3 of 3
R56W V64A S107T,3.05,3 of 3
T28E R56E V64Q,3.72,2 of 3
S31L R56I T58K,1.09,3 of 3
S31F R56V G103T,no signal,0 of 3
S53R R56L G99C,4.37,1 of 3
F27Q R56Q F59T,4.71,3 of 3
N30P R56D F59R,no signal,0 of 3
R56T D62F S63L,no signal,0 of 3
R56G K65C G99N,no signal,0 of 3
N30E R56W R100L,1.92,3 of 3
S53P R56Y G61E,2.14,2 of 3
I34E R56Y D62P,no signal,0 of 3
R56N R100Y T104L,4.91,3 of 3
R56W,no signal,0 of 3
G26I N30W R56H,no signal,0 of 3
Y32M R56A R100T,1.65,3 of 3
F27S R56M V64G,5.81,1 of 3
R56A F59K G103R,4.82,1 of 3
F27C R56I G103E,no signal,0 of 3
I51W R56S K65T,5.27,2 of 3
V50A R56M G99A,4.68,2 of 3
G26Y S31K R56L,2.11,1 of 3
R56W F59K S107E,no signal,0 of 3
G55Q R56F V64T,no signal,0 of 3
N30V R56M A102G,2.80,3 of 3

The last 4 entries again:

{"changes": "G26Y S31K R56L", "mean log10 Kd (nM)": "2.11", "seen in": "1 of 3"}
{"changes": "R56W F59K S107E", "mean log10 Kd (nM)": "no signal", "seen in": "0 of 3"}
{"changes": "G55Q R56F V64T", "mean log10 Kd (nM)": "no signal", "seen in": "0 of 3"}
{"changes": "N30V R56M A102G", "mean log10 Kd (nM)": "2.80", "seen in": "3 of 3"}

Nonspecific signal, from three strains lacking the peptide, appeared in 15% of pairings of library AAYL49, centred on 4.06 (5% of these signals below 2.83); values are not corrected for it.